Apparent affinities of Ab-14 variants for a coronavirus HR2 peptide

The measurements come from Engelhart et al. 2022 (doi:10.1038/s41597-022-01779-4) through the FLAb antibody collection.

The target is the same throughout: PDVDLGDISGINAS, from the HR2 region of SARS-CoV-2 spike.

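Phage display of a naive human antibody library on the peptide gave the parent. Library AAYL49 holds single substitutions and randomly drawn double and triple substitutions in the CDRs. The assay is AlphaSeq: two haploid yeast populations carry antibody and antigen on their surface. The frequency of each diploid, read from paired DNA barcodes, reflects how well the two displayed proteins bind. A regression on co-assayed BCL2-family reference pairs converts the normalised counts of each replicate to an apparent Kd. Each pool was mated in three replicate cultures.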

Each scFv is VH, the linker GGGGSGGGGSGGGGS, VL, as in the parent Ab-14, and differs from it in the CDRs of the heavy chain only.
VH: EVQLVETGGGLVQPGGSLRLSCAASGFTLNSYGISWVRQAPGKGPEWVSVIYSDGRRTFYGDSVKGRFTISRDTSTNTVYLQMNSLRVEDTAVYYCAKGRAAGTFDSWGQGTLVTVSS
VL: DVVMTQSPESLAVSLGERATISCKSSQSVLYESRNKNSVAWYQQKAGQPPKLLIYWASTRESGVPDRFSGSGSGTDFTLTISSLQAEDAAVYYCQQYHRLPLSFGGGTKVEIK

Positions count from residue 1 of the parent VH; Y60E puts E in place of Y. Numbers give log10(Kd / nM), so 0 is 1 nM and 3 is 1 µM. Smaller is tighter. The mean shown is taken over the replicates in which the pair was detected. Where no diploid with the target was found in that replicate, the entry reads "nd": below detection, most likely a poor binder, though not proof of it. For reference, the parent read 0.65 as the reference entry and 4.11 (one replicate of three) as a member of this library. Three control strains display no target. For library AAYL49, 15% of the pairings with them gave a signal, with a median of 4.06 and one signal in twenty below 2.83, so weak values seen in few replicates may be background. For each scFv, signals with the empty controls are counted beside the result, with their mean in brackets.

| # | changes | replicates, log10 nM | log10 Kd (nM), mean | empty controls |
|---|---|---|---|---|
| 1 | Y60E G99S A102P | nd / 4.44 / 5.64 | 5.04 | 3/9 (4.04) |
| 2 | F27M G61A T104K | 0.71 / 0.75 / 0.76 | 0.74 | 3/9 (4.40) |
| 3 | G26P R100F D106L | 1.57 / 1.49 / 1.46 | 1.51 | 3/9 (4.15) |
| 4 | Y52G G55V V64L | nd / 3.21 / nd | 3.21 | 4/9 (4.11) |
| 5 | Y32L F59N | nd / 3.94 / 3.40 | 3.67 | 3/9 (3.74) |
| 6 | T28W S31Q D62T | 1.94 / 2.46 / nd | 2.20 | 0/9 |
| 7 | G33V S63A A102V | nd / 3.13 / nd | 3.13 | 6/9 (4.74) |
| 8 | S31P D54C A101D | nd / nd / 4.22 | 4.22 | 3/9 (4.25) |
| 9 | Y60P R100P A102Q | nd / nd / nd | nd | 1/9 (4.19) |
| 10 | I51H G55C S63G | nd / nd / 4.39 | 4.39 | 2/9 (3.86) |
| 11 | S35K Y52Q A101R | nd / nd / nd | nd | 0/9 |
| 12 | G26E R100Q A101N | 1.13 / 1.11 / 1.17 | 1.14 | 0/9 |
| 13 | S31T Y52D D106S | nd / nd / nd | nd | 2/9 (3.82) |
| 14 | G33E D54Q F105E | nd / nd / nd | nd | 0/9 |
| 15 | S35D R56S T104K | nd / nd / nd | nd | 0/9 |
| 16 | G33E I34A V64Q | nd / nd / nd | nd | 0/9 |
| 17 | F59Q Y60A F105D | 3.49 / nd / 4.97 | 4.23 | 0/9 |
| 18 | D62P G103P | nd / nd / nd | nd | 1/9 (4.49) |
| 19 | D54S G61M R100Q | nd / nd / nd | nd | 1/9 (3.40) |
| 20 | Y60K K65Y | nd / nd / nd | nd | 0/9 |
| 21 | F27H Y52L D54K | nd / nd / nd | nd | 0/9 |
| 22 | F59L G99Q A101M | 3.34 / nd / 5.27 | 4.31 | 3/9 (4.26) |
| 23 | N30C V50S R56F | nd / nd / nd | nd | 0/9 |
| 24 | G26N | 4.99 / nd / nd | 4.99 | 3/9 (4.68) |
| 25 | I34Q Y60P K65H | 3.16 / nd / nd | 3.16 | 1/9 (4.33) |
| 26 | T58G D62Q K65T | nd / nd / nd | nd | 0/9 |
| 27 | L29Q S31W R100W | nd / 5.50 / 5.50 | 5.50 | 6/9 (4.26) |
| 28 | G33Q Y52H V64K | nd / nd / nd | nd | 1/9 (3.59) |
| 29 | G26F S31R G103Y | nd / nd / nd | nd | 0/9 |
| 30 | T58N V64P S107M | nd / nd / nd | nd | 0/9 |
| 31 | T28A L29T A102E | 5.68 / 4.35 / 3.96 | 4.66 | 5/9 (4.81) |

The first 3 entries again:

changes	replicates, log10 nM	log10 Kd (nM), mean	empty controls
Y60E G99S A102P	nd / 4.44 / 5.64	5.04	3/9 (4.04)
F27M G61A T104K	0.71 / 0.75 / 0.76	0.74	3/9 (4.40)
G26P R100F D106L	1.57 / 1.49 / 1.46	1.51	3/9 (4.15)